Values of other authors in patent publication US9415039B2, “Disubstituted 3,4-diamino-3-cyclobutene-1,2-dione compounds for use in the treatment of chemokine-mediated diseases” (GALDERMA RESEARCH & DEVELOPMENT, priority 2011, dated 2016).

Protein sequences, listed by entry. Tags and fused reporters are not part of them.
UniProt P25025, whole entry: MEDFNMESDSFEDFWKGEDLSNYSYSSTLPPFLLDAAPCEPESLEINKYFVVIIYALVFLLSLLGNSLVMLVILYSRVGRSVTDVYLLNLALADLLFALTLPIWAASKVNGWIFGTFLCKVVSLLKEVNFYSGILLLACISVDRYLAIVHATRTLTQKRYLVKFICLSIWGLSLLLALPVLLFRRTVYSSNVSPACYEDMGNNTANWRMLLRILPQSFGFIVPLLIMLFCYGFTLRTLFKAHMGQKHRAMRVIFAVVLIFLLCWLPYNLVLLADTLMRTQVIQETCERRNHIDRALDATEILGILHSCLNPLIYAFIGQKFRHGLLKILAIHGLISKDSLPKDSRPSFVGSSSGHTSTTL

Molecular target: T1, CXCR2 (Homo sapiens, UniProt P25025)
T1 construct: β-galactosidase enzyme-complementation fragment (PathHunter system); host or cells: HEK293
Settings: cited from earlier work

For `CC[C@@H](Nc1c(Nc2cccc(C(=O)N(C)C)c2O)c(=O)c1=O)c1ccc(C)o1` [SCH-527123], which “type of dissociation (in words)” value (as described in JPET 322:477-485, 2007) is on record?
The value was “pseudo-irreversible dissociation”.

And the dissociation time (receptors of CXCR1 and CXCR2 type, from JPET 322:477-485, 2007)?
Its dissociation time is “about 22 h”.
